Only a part is listed here, and it is no random draw. The source made the active and inactive calls.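 The calls were made as follows: active = mean inhibition of at least 75% with every replicate also reaching 75%; inconclusive = mean inhibition at least 75% but some replicate below; inactive = mean inhibition below 75%.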

A short description of the experiment: Shn3 3'UTR reporter decrease in osteoblasts – cell-based, Clone20 osteoblasts, firefly luciferase, set 2, Schnurri-3 inhibitor project, primary screen (AID 588674).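 Also: 0% = median of neutral control wells and 100% = pilot-screen positive control compound.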 The settings on record: Clone20 osteoblast Shn3 3'UTR firefly luciferase, 24 h; at 12.5 µM; stronger effect = higher value.
As for `CC(C)c1ccc(NC2CCN(C(=O)OC(C)(C)C)CC2)cc1`, the inhibition – broadly, the drop in the measured response relative to a control, in per cent – was inactive: -31.5%.

On to `CCCCn1nnnc1C(c1ccccc1OC(F)(F)F)N1CCC(n2c(=O)[nH]c3ccccc32)CC1` (configuration not stated), for which the inhibition is inactive: 11.2%.

As for `COc1ccc(CN(CCCl)CCCl)cc1Cl`, the inhibition is inactive: 7.01%.

Turning to `CN(C)c1cccc(C(=O)NCC2(N3CCCCC3)CCCCC2)c1`, the inhibition was inactive: 8.88%.

Take `COc1cc(OC)c(C(=O)NCC2(N(C)C)CCCCC2)cc1OC`: the inhibition was inactive: 9.25%.

Regarding `O=C(NCC1(N2CCOCC2)CCCCC1)c1cc(F)c(F)cc1Cl`, the inhibition is inactive: 8.22%.

Take `CCC(c1nnnn1C(C)(C)C)N1CCC(n2c(=O)[nH]c3ccccc32)CC1` (configuration not stated): the inhibition was inactive: 16.7%.

Take `CCCCn1nnnc1C(c1ccnc2ccccc12)N1CCC(n2c(=O)[nH]c3ccccc32)CC1` (configuration not stated): the inhibition is inactive: 9.26%.

Regarding `CN1CCC(Nc2cccc(F)c2)CC1`, the inhibition was inactive: -9.05%.

As to `O=C(NCC1(N2CCCCC2)CCCCC1)c1cncc(Br)c1`, the inhibition is inactive: 10.2%.

On to `COc1ccc(C(c2nnnn2C2CCCC2)N2CCC(n3c(=O)[nH]c4ccccc43)CC2)cc1` (configuration not stated), for which the inhibition is inactive: -14.3%.

For the molecule `Cc1ccc(C(=O)NCC2(N(C)C)CCCCC2)o1`, the inhibition was inactive: 0.293%.

In the case of `CCCOc1ccc(C(=O)NCC2(N(C)C)CCCCC2)cc1OC`, the inhibition was inactive: -12%.

Take `CC(C)(C)n1nnnc1C(c1ccccc1OC(F)(F)F)N1CCC(n2c(=O)[nH]c3ccccc32)CC1` (configuration not stated): the inhibition was inactive: 17.5%.

In the case of `O=C(NCC1(N2CCCCC2)CCCCC1)c1ccc(OC(F)F)cc1`, the inhibition was inactive: -14.1%.

On to `CCN1CCC(Nc2ccc(Cl)cc2)CC1`, for which the inhibition is inactive: -0.377%.

For `O=c1[nH]c2ccccc2n1C1CCN(C(c2ccccc2OC(F)(F)F)c2nnnn2C2CCCC2)CC1` (configuration not stated), the inhibition was inactive: -11.5%.

`N#CC1(Nc2ccccc2)CCN(CCc2ccccc2)CC1`: the inhibition is inactive: 21%.

Turning to `CSc1ccc(C(=O)NCC2(N3CCOCC3)CCCCC2)cc1`, the inhibition is inactive: 1.61%.

Turning to `O=C(NCC1(N2CCCCC2)CCCCC1)c1cccc([N+](=O)[O-])c1`, the inhibition is inactive: -12.8%.

For `O=C(NCC1(N2CCCCC2)CCCCC1)c1cccc(C(F)(F)F)c1`, the inhibition was inactive: 0.239%.

Consider `O=C(NCC1(N2CCOCC2)CCCCC1)c1cc(=O)[nH]c2ccccc12`, for which the inhibition was inactive: -9.15%.

`COc1cc(C(=O)NCC2(N3CCCCC3)CCCCC2)ccc1OC(F)F`: the inhibition was inactive: 22.9%.

`CC(C)c1ccc(C(=O)NCC2(N3CCOCC3)CCCCC2)cc1`: the inhibition is inactive: -15.8%.

As to `COc1ccc(NC2CCN(C(=O)OC(C)(C)C)CC2)cc1`, the inhibition is inactive: 17.4%.

For the molecule `CN1CCN(CCOC(=O)C(O)(c2ccccc2)c2ccccc2)CC1`, the inhibition was inactive: 0.597%.

With `CCCCn1nnnc1C(c1cccc2ccccc12)N1CCC(n2c(=O)[nH]c3ccccc32)CC1` (configuration not stated), the inhibition was inactive: -5.07%.

Turning to `CC(C)(C)n1nnnc1C(c1ccccc1)N1CCC(n2c(=O)[nH]c3ccccc32)CC1` (configuration not stated), the inhibition was inactive: -11.9%.

As for `O=C1CCN(Cc2ccccc2)CC1`, the inhibition is inactive: -11.8%.

For the molecule `CCOc1ccc(C)cc1CN(CCCl)CCCl`, the inhibition was inactive: -15.3%.

As to `CCCCOc1ccc(C(=O)NCC2(N3CCOCC3)CCCCC2)cc1`, the inhibition was inactive: 17.7%.

For `O=P1(N(CCCl)CCCl)SCCCS1`, the inhibition was inactive: -17.9%.

Regarding `CCCCn1nnnc1C(c1cc2ccccc2o1)N1CCC(n2c(=O)[nH]c3ccccc32)CC1` (configuration not stated), the inhibition is inactive: 6.58%.

Consider `O=C(NCC1(N2CCCCC2)CCCCC1)c1ccc(F)cc1`, for which the inhibition is inactive: 12.1%.

`CCOC(=O)N1CCC(Nc2ccc(F)cc2)CC1`: the inhibition is inactive: 0.447%.

In the case of `COc1ccc(NC2CCN(CCc3ccccc3)CC2)c(OC)c1`, the inhibition is inactive: -9.3%.

Turning to `O=c1[nH]c2ccccc2n1C1CCN(C(c2ccccc2)c2nnnn2C2CCCCC2)CC1` (configuration not stated), the inhibition is inactive: 14.6%.

With `CCOC(=O)N1CCC(Nc2cccc(C)c2)CC1`, the inhibition was inactive: -37.8%.

`COc1cc(C(=O)NCC2(N(C)C)CCCCC2)ccc1OC(F)F`: the inhibition is inactive: -7.97%.

Regarding `O=c1[nH]c2ccccc2n1C1CCN(C(c2cccc3ccccc23)c2nnnn2C2CCCC2)CC1` (configuration not stated), the inhibition is inactive: 9.01%.

Consider `COc1ccc(C(=O)NCC2(N3CCCCC3)CCCCC2)cc1`, for which the inhibition was inactive: -0.846%.

Consider `CC(C)(C)OC(=O)N1CCC(N(C(=O)c2ccccc2)c2ccc(F)cc2)CC1`, for which the inhibition is inactive: -0.658%.

With `COc1ccc(C(=O)NCC2(N3CCCCC3)CCCCC2)c(OC)c1OC`, the inhibition is inactive: 5.84%.

Take `CCC(c1nnnn1C1CCCC1)N1CCC(n2c(=O)[nH]c3ccccc32)CC1` (configuration not stated): the inhibition was inactive: 13.4%.

Take `O=C(NCC1(N2CCCCC2)CCCCC1)c1ccc(=O)[nH]c1`: the inhibition was inactive: -25.3%.

For the molecule `O=C(NCC1(N2CCCCC2)CCCCC1)c1cccs1`, the inhibition was inactive: 2.51%.

With `CCCCn1nnnc1C(CC)N1CCC(n2c(=O)[nH]c3ccccc32)CC1` (configuration not stated), the inhibition was inactive: 13.1%.

Consider `CCCCn1nnnc1C(c1cccs1)N1CCC(n2c(=O)[nH]c3ccccc32)CC1` (configuration not stated), for which the inhibition is inactive: -2.17%.

As for `CSc1ccccc1C(=O)NCC1(N2CCCCC2)CCCCC1`, the inhibition is inactive: 10.9%.

On to `Cc1cccc(NC2(C#N)CCN(Cc3ccccc3)CC2)c1`, for which the inhibition was inactive: -6.18%.

On to `O=C(NCC1(N2CCCCC2)CCCCC1)c1ccc(Cl)nc1`, for which the inhibition is inactive: -11.4%.

For the molecule `O=c1[nH]c2ccccc2n1C1CCN(C(c2ccccc2OC(F)(F)F)c2nnnn2C2CCCCC2)CC1` (configuration not stated), the inhibition is inactive: 8.69%.

For the molecule `Cc1cc(C)cc(N(C(=O)c2ccccc2)C2CCN(C(=O)OC(C)(C)C)CC2)c1`, the inhibition is inactive: 46.4%.

Turning to `O=C(NCC1(N2CCOCC2)CCCCC1)c1cc2ccccc2o1`, the inhibition was inactive: -12.1%.

For the molecule `N#CC1(Nc2ccccc2)CCN(Cc2ccccc2)CC1`, the inhibition is inactive: 11.7%.

Take `O=C(NCC1(N2CCCCC2)CCCCC1)c1ccc(Cl)s1`: the inhibition is inactive: -3%.

For `O=c1[nH]c2ccccc2n1C1CCN(C(c2cc3ccccc3o2)c2nnnn2C2CCCCC2)CC1` (configuration not stated), the inhibition was inactive: -22.2%.

Regarding `O=C(OC1CN2CCC1CC2)C1c2ccccc2Oc2ccccc21` (configuration not stated), the inhibition was inactive: 12.6%.

On to `COc1ccc(Cl)cc1C(=O)NCC1(N2CCOCC2)CCCCC1`, for which the inhibition was inactive: -7.29%.

`CCOC(=O)N1CCC(Nc2ccc(OC)cc2)CC1`: the inhibition is inactive: 4.28%.

Consider `CCCCn1nnnc1C(c1ccc(OC)cc1)N1CCC(n2c(=O)[nH]c3ccccc32)CC1` (configuration not stated), for which the inhibition is inactive: -1.48%.

On to `CCOc1ncccc1C(=O)NCC1(N2CCOCC2)CCCCC1`, for which the inhibition is inactive: 25.9%.

Take `CN1CCC(Nc2ccc(F)c(Cl)c2)CC1`: the inhibition was inactive: 10.2%.

With `CC(C)(C)OC(=O)N1CCC(Nc2ccccc2)CC1`, the inhibition was inactive: -21.2%.

`O=C(O)C1(Nc2ccccc2)CCN(Cc2ccccc2)CC1`: the inhibition was inactive: 6.22%.

As for `O=c1[nH]c2ccccc2n1C1CCN(C(c2cc3ccccc3o2)c2nnnn2C2CCCC2)CC1` (configuration not stated), the inhibition is inactive: -2.29%.

On to `CCCOc1ccc(C(=O)NCC2(N(C)C)CCCCC2)cc1`, for which the inhibition is inactive: -8.9%.

Regarding `COc1cccc(C(=O)N(c2cc(C)cc(C)c2)C2CCN(C(=O)OC(C)(C)C)CC2)c1`, the inhibition is inactive: 50.5%.

Turning to `COc1cccc(C(c2nnnn2C2CCCC2)N2CCC(n3c(=O)[nH]c4ccccc43)CC2)c1OC` (configuration not stated), the inhibition is inactive: -15.2%.

With `COc1cc(OC)cc(C(=O)NCC2(N3CCOCC3)CCCCC2)c1`, the inhibition was inactive: -21.7%.

For the molecule `CCC(CO)(C(=O)OC1CN2CCC1CC2)c1ccccc1` (configuration not stated), the inhibition was inactive: -5.83%.

Take `CN1CCC(Nc2ccc(Cl)cc2)CC1`: the inhibition was inactive: 3.97%.

As for `COc1cccc(C(c2nnnn2C2CCCCC2)N2CCC(n3c(=O)[nH]c4ccccc43)CC2)c1OC` (configuration not stated), the inhibition is inactive: 5.68%.

Turning to `CC(=O)N(c1ccccc1)C1CCNCC1`, the inhibition was inactive: -26.6%.

Take `CCC(c1nnnn1C1CCCCC1)N1CCC(n2c(=O)[nH]c3ccccc32)CC1` (configuration not stated): the inhibition is inactive: 29.5%.

In the case of `COc1cc(OC)cc(C(=O)NCC2(N3CCCCC3)CCCCC2)c1`, the inhibition is inactive: -14.8%.

As to `O=c1[nH]c2ccccc2n1C1CCN(C(c2ccnc3ccccc23)c2nnnn2C2CCCCC2)CC1` (configuration not stated), the inhibition was inactive: 4.5%.

As for `Cc1ccc(C(=O)NCC2(N3CCCCC3)CCCCC2)o1`, the inhibition is inactive: -0.118%.

`Fc1ccccc1NC1CCN(Cc2ccccc2)CC1`: the inhibition is inactive: -14.1%.

As to `Cc1ccc(NC2(C#N)CCN(Cc3ccccc3)CC2)cc1`, the inhibition was inactive: 3.92%.

Regarding `Cc1ccccc1NC1(C#N)CCN(Cc2ccccc2)CC1`, the inhibition was inactive: 6.52%.

In the case of `CCN1CCC(Nc2cccc(F)c2)CC1`, the inhibition is inactive: -10.6%.

Regarding `COc1ccc(C(c2nnnn2C2CCCCC2)N2CCC(n3c(=O)[nH]c4ccccc43)CC2)cc1` (configuration not stated), the inhibition is inactive: 6.75%.

With `CC(C)(C)n1nnnc1C(c1ccnc2ccccc12)N1CCC(n2c(=O)[nH]c3ccccc32)CC1` (configuration not stated), the inhibition was inactive: 9.34%.

For `O=C(NCC1(N2CCCCC2)CCCCC1)c1ccco1`, the inhibition is inactive: 14.5%.

For `CN(C)c1ccc(C(=O)NCC2(N3CCCCC3)CCCCC2)cc1`, the inhibition was inactive: -2.25%.

As for `Cn1c(=O)[nH]cc(N(CCCl)CCCl)c1=O`, the inhibition is inactive: 4.36%.

As to `N#Cc1ccc(C(=O)NCC2(N3CCCCC3)CCCCC2)cc1`, the inhibition was inactive: 3.12%.

Consider `CC(C)(C)OC(=O)N1CCC(N(C(=O)c2ccccc2)c2ccc(Cl)cc2)CC1`, for which the inhibition is inactive: -2.08%.

With `CN(C)C1(CNC(=O)c2cccc(C#N)c2)CCCCC1`, the inhibition was inactive: -6.35%.

Regarding `c1ccc(CN2CCC(Nc3ccccc3)CC2)cc1`, the inhibition is inactive: 6.11%.

With `Cc1cc(N(CCCl)CCCl)ccc1C=O`, the inhibition is inactive: 2.26%.

Consider `CCCN1CCC(Nc2cc(OC)cc(OC)c2)CC1`, for which the inhibition was inactive: 2.38%.

Regarding `O=c1[nH]c2ccccc2n1C1CCN(C(c2ccccc2)c2nnnn2C2CCCC2)CC1` (configuration not stated), the inhibition is inactive: 3.48%.

As for `CC(C)(C)n1nnnc1C(c1cccc2ccccc12)N1CCC(n2c(=O)[nH]c3ccccc32)CC1` (configuration not stated), the inhibition was inactive: 9.67%.

As to `CCCCn1nnnc1C(c1ccccc1)N1CCC(n2c(=O)[nH]c3ccccc32)CC1` (configuration not stated), the inhibition was inactive: 1.59%.

With `COc1cc(C(=O)NCC2(N3CCOCC3)CCCCC2)cc(OC)c1C`, the inhibition was inactive: 16.3%.

`O=C(NCC1(N2CCOCC2)CCCCC1)c1cc(Br)ccc1Cl`: the inhibition was inactive: -0.955%.

Consider `O=c1[nH]c2ccccc2n1C1CCN(C(c2cccs2)c2nnnn2C2CCCCC2)CC1` (configuration not stated), for which the inhibition was inactive: 15.6%.

On to `COc1ccc(C(=O)NCC2(N3CCOCC3)CCCCC2)cc1OC`, for which the inhibition was inactive: -19%.

`O=c1[nH]c2ccccc2n1C1CCN(C(c2ccnc3ccccc23)c2nnnn2C2CCCC2)CC1` (configuration not stated): the inhibition was inactive: -26.5%.

Consider `CCOC(=O)N1CCC(Nc2ccc(C)cc2)CC1`, for which the inhibition is inactive: 24.6%.

In the case of `COc1cccc(C(c2nnnn2C(C)(C)C)N2CCC(n3c(=O)[nH]c4ccccc43)CC2)c1OC` (configuration not stated), the inhibition is inactive: -27.7%.

In the case of `N/C(=N\O)c1c(N)no[n+]1[O-]`, the inhibition is inactive: -16%.

Take `O=C(OC1CN2CCC1CC2)C1c2ccccc2C=Cc2ccccc21` (configuration not stated): the inhibition is inactive: 2.62%.

As for `O=c1[nH]c2ccccc2n1C1CCN(C(c2cccs2)c2nnnn2C2CCCC2)CC1` (configuration not stated), the inhibition is inactive: 12.2%.

With `CCCCn1nnnc1C(c1cccc(OC)c1OC)N1CCC(n2c(=O)[nH]c3ccccc32)CC1` (configuration not stated), the inhibition was inactive: 23.4%.

For the origin of these results see PubChem BioAssay AID588674 (Broad Institute, 2011).
